SMILES strings stand for the structures. The list shows a part of the results, in another mix than the full data. Results filed as inconclusive are left out. The source made the active and inactive calls. The call rests on the fitted dose curve; in most records, active means well fitted cell-killing curve with a large enough effect; inconclusive means small, poorly fitted or top-dose-only effect; inactive means no such curve, though single readings can be large or run the other way.
On the % scale 0 is the no-effect control and ±100 the full control effect.

This experiment is described as follows: qHTS Screen for Compounds that Selectively Target Cancer Cells with p53 Mutations: Cytotoxicity of p53ts Cells at the Nonpermissive Temperature. Further: nearly all actives have a fitted effect of over 55% in size. Particulars: H1299-p53A138V viability at 39C, ATP luminescence, 24 h; at 46.1 µM (top of the series) unless noted. A general note: qHTS replaces the single test concentration by a dilution series.
In the case of `O=C(NCC1(N2CCOCC2)CCCCC1)c1ccc(Cl)cc1`, the activity change, negative = cell killing was inactive: 9.86%. For `COc1ccc(NC2CCN(CCc3ccccc3)CC2)c(OC)c1`, the activity change, negative = cell killing was inactive: -9.51%. For `COc1ccccc1C(=O)NCC1(N2CCOCC2)CCCCC1`, the activity change, negative = cell killing is inactive: 15%. In the case of `O=C(OC1CN2CCC1CC2)C1c2ccccc2Oc2ccccc21` (stereo not drawn), the activity change, negative = cell killing is inactive: -9.02%. With `O=C(NCC1(N2CCOCC2)CCCCC1)c1ccccc1Br`, the activity change, negative = cell killing was inactive: -5.04%. Take `CCCCOc1ccccc1C(=O)NCC1(N2CCOCC2)CCCCC1`: the activity change, negative = cell killing was inactive: -10.9%.

As to `CCOP(=O)(Cl)Cl`, the activity change, negative = cell killing was inactive: -1.96%. On to `CCCOc1cccc(C(=O)NCC2(N3CCOCC3)CCCCC2)c1`, for which the activity change, negative = cell killing was inactive: -7.27%. Next, `CCOc1ccc(C(=O)NCC2(N3CCOCC3)CCCCC2)cc1`: inactive: 3.02%.

`N#CC1(Nc2ccccc2)CCN(CCc2ccccc2)CC1`: the activity change, negative = cell killing is inactive: -6.84%. With `O=C(NCC1(N2CCOCC2)CCCCC1)c1ccccc1`, the activity change, negative = cell killing is inactive: 19.2%. Turning to `ClCCOP(OCCCl)OCCCl`, the activity change, negative = cell killing is inactive: 11.8%. For `O=C(NCC1(N2CCOCC2)CCCCC1)c1ccc([N+](=O)[O-])cc1` the value was inactive: 6.89%.

Take `O=C(NCC1(N2CCOCC2)CCCCC1)c1ccccc1[N+](=O)[O-]`: the activity change, negative = cell killing was inactive: 6.13%.

As to `N/C(=N\O)c1c(N)no[n+]1[O-]`, the activity change, negative = cell killing was inactive: 5.97%. As to `CCC(CO)(C(=O)OC1CN2CCC1CC2)c1ccccc1` (stereo not drawn), the activity change, negative = cell killing is inactive: 3.76%. For `COc1cc(C(=O)NCC2(N3CCOCC3)CCCCC2)cc(OC)c1OC`, the activity change, negative = cell killing is inactive: 3.05%. For the molecule `CCOc1ncccc1C(=O)NCC1(N2CCOCC2)CCCCC1`, the activity change, negative = cell killing is inactive: 0.461%. For `O=C(O)C1(Nc2ccccc2)CCN(Cc2ccccc2)CC1` the value was inactive: 0.382% [at 9.22 µM]; for `CC(C)(C)c1ccc(C(=O)NCC2(N3CCOCC3)CCCCC2)cc1`, inactive: 7.71%. For `Cc1ccccc1C(=O)NCC1(N(C)C)CCCCC1` the value was inactive: -14.4%; for `CN(C)C1(CNC(=O)c2ccc(C(C)(C)C)cc2)CCCCC1`, inactive: -8.67%. With `Fc1ccccc1NC1CCN(Cc2ccccc2)CC1`, the activity change, negative = cell killing was inactive: -3.33%.
